Laboratory results from paper PMC9458217, “Synthesis and Biological Evaluation of Cassane Diterpene (5α)-Vuacapane-8(14), 9(11)-Diene and of Some Related Compounds” (Molecules, 2022).

Test system: B16-F10 mouse melanoma cells
Test: MTT cytotoxicity on B16-F10 cells
Conditions: 72 h

## Cc1c2c(cc3c1CCC1C(C)(C)CCCC31C)OC(O)C2 (stereo not shown) [Compound 6, pterolobirin G]
  IC50: < 10 µg/mL
